Measurements from PubChem BioAssay AID624170 (National Center for Advancing Translational Sciences (NCATS), 2012).
Only a part is listed here, and it is no random draw. Records with an inconclusive call do not appear. Calls of active or inactive are those of the source. The call rests on the fitted dose curve; in most records, active means well fitted inhibition curve with a large enough effect; inconclusive means small, poorly fitted or top-dose-only effect, or another doubt; inactive means no such curve, though single readings can be large or run the other way.

Sequences of proteins named here, by UniProt entry; tags and fusion partners are left off.
UniProt O94925, whole entry: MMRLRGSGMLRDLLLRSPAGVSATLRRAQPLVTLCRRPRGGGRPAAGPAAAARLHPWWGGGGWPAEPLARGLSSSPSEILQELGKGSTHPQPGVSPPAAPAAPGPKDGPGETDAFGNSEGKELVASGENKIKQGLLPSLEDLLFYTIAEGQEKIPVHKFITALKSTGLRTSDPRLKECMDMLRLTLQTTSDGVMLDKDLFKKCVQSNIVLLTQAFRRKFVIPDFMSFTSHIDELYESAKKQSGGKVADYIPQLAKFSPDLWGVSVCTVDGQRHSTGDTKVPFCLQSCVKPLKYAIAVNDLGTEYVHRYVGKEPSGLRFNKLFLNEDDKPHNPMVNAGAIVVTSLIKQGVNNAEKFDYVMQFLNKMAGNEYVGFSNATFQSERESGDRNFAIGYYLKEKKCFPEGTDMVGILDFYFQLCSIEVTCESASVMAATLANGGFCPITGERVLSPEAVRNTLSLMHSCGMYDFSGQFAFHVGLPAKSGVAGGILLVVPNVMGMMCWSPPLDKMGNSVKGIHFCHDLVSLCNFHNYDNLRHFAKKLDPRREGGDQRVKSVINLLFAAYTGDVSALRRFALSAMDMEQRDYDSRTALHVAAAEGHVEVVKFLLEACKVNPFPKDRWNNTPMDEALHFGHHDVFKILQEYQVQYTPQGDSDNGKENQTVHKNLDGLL

biological target: Glutaminase kidney isoform, mitochondrial (Homo sapiens) (UniProt O94925); experiment: qHTS for Inhibitors of Glutaminase (GLS); conditions: GLS enzymatic activity, qHTS titration; at 45.5 µM (top of the series)
On the % scale 0 is the no-effect control and ±100 the full control effect.

Structure (SMILES) | activity change, negative = inhibition
CCCOc1cccc(C(=O)NCC2(N3CCOCC3)CCCCC2)c1 | inactive: 4.18%
O=C(NCC1(N2CCCCC2)CCCCC1)c1cccc(C(F)(F)F)c1 | inactive: 14.5%
COc1ccccc1C(=O)NCC1(N2CCOCC2)CCCCC1 | inactive: 2.72%
O=C(NCC1(N2CCCCC2)CCCCC1)c1ccc(F)cc1 | inactive: -4.13%
O=P1(N(CCCl)CCCl)SCCCS1 | inactive: 0.141%
CCCCn1nnnc1C(c1cc2ccccc2o1)N1CCC(n2c(=O)[nH]c3ccccc32)CC1 (stereo not drawn) | inactive: 7.86%
CCCCOc1ccc(C(=O)NCC2(N3CCOCC3)CCCCC2)cc1 | inactive: -5.02%
COc1ccc(NC2CCN(CCc3ccccc3)CC2)c(OC)c1 | inactive: 34.4%
CCOC(=O)N1CCC(Nc2ccc(F)cc2)CC1 | inactive: 0.498%
CC(C)(C)n1nnnc1C(c1ccccc1)N1CCC(n2c(=O)[nH]c3ccccc32)CC1 (stereo not drawn) | inactive: 2.81%
O=C(NCC1(N2CCOCC2)CCCCC1)c1ccc(Cl)cc1 | inactive: 4.03%
O=C1CCN(Cc2ccccc2)CC1 | inactive: 2.86%
CCOc1ccc(C)cc1CN(CCCl)CCCl | inactive: -11.1%
COc1cc(C(=O)NCC2(N(C)C)CCCCC2)ccc1OC(F)F | inactive: 22.9%
CCOC(=O)N1CCC(Nc2cccc(C)c2)CC1 | inactive: 15.7%
O=c1[nH]c2ccccc2n1C1CCN(C(c2cccc3ccccc23)c2nnnn2C2CCCC2)CC1 (stereo not drawn) | inactive: -0.228%
O=c1[nH]c2ccccc2n1C1CCN(C(c2ccccc2)c2nnnn2C2CCCCC2)CC1 (stereo not drawn) | inactive: 1.03%
CSc1ccccc1C(=O)NCC1(N2CCCCC2)CCCCC1 | inactive: -1%
Cc1cccc(NC2(C#N)CCN(Cc3ccccc3)CC2)c1 | inactive: -8%

Structure (SMILES) | activity change, negative = inhibition
COc1ccc(C(=O)NCC2(N3CCCCC3)CCCCC2)cc1 | inactive: -17.6%
CCC(c1nnnn1C1CCCC1)N1CCC(n2c(=O)[nH]c3ccccc32)CC1 (stereo not drawn) | inactive: 0.505%
COc1ccc(C(=O)NCC2(N3CCCCC3)CCCCC2)c(OC)c1OC | inactive: 16.6%
CC(C)(C)OC(=O)N1CCC(N(C(=O)c2ccccc2)c2ccc(F)cc2)CC1 | inactive: -8.31%
O=C(NCC1(N2CCCCC2)CCCCC1)c1ccc(=O)[nH]c1 | inactive: 16.6%
CCCCn1nnnc1C(c1cccs1)N1CCC(n2c(=O)[nH]c3ccccc32)CC1 (stereo not drawn) | inactive: 9.17%
CCCCn1nnnc1C(CC)N1CCC(n2c(=O)[nH]c3ccccc32)CC1 (stereo not drawn) | inactive: -7.4%
O=C(NCC1(N2CCCCC2)CCCCC1)c1cccs1 | inactive: -5.43%
O=C(OC1CN2CCC1CC2)C1c2ccccc2Oc2ccccc21 (stereo not drawn) | inactive: 11.3%
O=c1[nH]c2ccccc2n1C1CCN(C(c2cc3ccccc3o2)c2nnnn2C2CCCCC2)CC1 (stereo not drawn) | inactive: -9.65%
N#CC1(Nc2ccccc2)CCN(Cc2ccccc2)CC1 | inactive: 8.04%
O=C(NCC1(N2CCCCC2)CCCCC1)c1ccc(Cl)s1 | inactive: 14.9%
COc1ccc(Cl)cc1C(=O)NCC1(N2CCOCC2)CCCCC1 | inactive: 17.2%
CCOC(=O)N1CCC(Nc2ccc(OC)cc2)CC1 | inactive: 20%
CCCCn1nnnc1C(c1ccc(OC)cc1)N1CCC(n2c(=O)[nH]c3ccccc32)CC1 (stereo not drawn) | inactive: 8.63%
O=c1[nH]c2ccccc2n1C1CCN(C(c2ccccc2OC(F)(F)F)c2nnnn2C2CCCCC2)CC1 (stereo not drawn) | inactive: 2.81%
O=C(NCC1(N2CCCCC2)CCCCC1)c1ccc(Cl)nc1 | inactive: -0.365%
Cc1cc(C)cc(N(C(=O)c2ccccc2)C2CCN(C(=O)OC(C)(C)C)CC2)c1 | inactive: 0.318%
O=C(NCC1(N2CCOCC2)CCCCC1)c1cc2ccccc2o1 | inactive: 17.7%
